EP1923473B1, “Bis-diglycolamides (BISDGA) as new extractants for lanthanides [Ln(III)] and actinides [An(III)] from aqueous high-level wastes” (Universidad Autónoma de Madrid, priority 2006, dated 2008)

Assay: Batch extraction from simulated HLLW from the PUREX process
Type: physicochemical
Conditions: 0.1 mol/L in TPH/1-octanol (90:10)
Experimental: The feed solution used for the extraction tests is a simulated solution of an HLLW from the PUREX process, the composition of which is shown in Table 4. Table 4: Composition of the simulated HLLW-PUREX solution used for the extraction tests
The composition of the HLLW corresponds to a burn-up of 33 GWd/tHM, the generated volume of HLLW being 5000 1/t of fuel. […] Oxalic acid and N-(2-hydroxyethyl)ethylenediaminotriacetate (HEDTA) were also added before the extraction tests.
The concentrations of the stable elements were determined by mass spectrometry with an inductively coupled plasma source (ICP-MS) in a DRC Elan 6100 device of Perkin Elmer Sciex. The aqueous phase was measured directly after the appropriate dilution. The organic phase was analyzed after having mineralized the organic matter by microwave acid digestion and subsequent dilution.
The distribution coefficients were calculated for each element according to section C).
(§1) Extraction experiments were carried out with said simulated HLLW in a pure form and also adding oxalic acid and HEDTA to it.
as §1

Substance: 2-Dioctylcarbamoylmethoxy-N-[3-[3-(2-dioctylcarbamoyl-methoxyacetylamino)propoxy]propyl]acetamide [Compound 18]
- Distribution coefficients Sr (Oxalic acid 0.2 mol/L, HEDTA 0.05 mol/L, TBP 0.5 mol/L): 0.045
- Distribution coefficients Sr (Oxalic acid 0.2 mol/L, HEDTA 0.05 mol/L, TBP No): 0.043
- Distribution coefficients Sr (Oxalic acid 0.3 mol/L, HEDTA 0.05 mol/L, TBP 0.5 mol/L): 0.047
- Distribution coefficients Sr (Oxalic acid 0.3 mol/L, HEDTA 0.05 mol/L, TBP No): 0.041
- Distribution coefficients Sr (Oxalic acid No, HEDTA No, TBP 0.5 mol/L): 0.031
- Distribution coefficients Sr (Oxalic acid No, HEDTA No, TBP No): 0.033
